Data from US20240374605A1, “METHODS OF TREATING CANCER” (Foghorn Therapeutics Inc., priority 2021, published 2024).

Test: Body weight and tolerability in tumor-bearing mice
Format: in vivo
Settings: all treatments, once daily oral gavage, 3 weeks

Which body weight change does the source give for `CC1CN(c2cccc(-c3csc(NC(=O)CNC(=O)c4ccn(C(C)(C)C)c4)n3)n2)CC(C)O1` (centres unmarked) here?
Its body weight change is “no body weight loss”.

What about the tolerability of the same compound?
The tolerability was “well tolerated”.
